Data on 1 substance can be found in patent US20250290034A1, “METHOD FOR PRODUCING NAÏVE PLURIPOTENT STEM CELLS” (KYOTO UNIVERSITY, priority 2022, published 2025).

For the assay, the system named is H9EOS cells. Kind of assay: Chemical resetting of primed H9EOS cells to naive state; EGFP-positive cells quantified on Day 14 by flow cytometry. In kind it is cell-based, human. As for the experimental part:
After collecting H9EOS and H9EOS (NK) cells and measuring the cell count in the same manner as for subculturing, they were diluted with AK02N medium containing Y-27632 (Nacalai Tesque, 08945-84) and iMatrix-511 silk (Nippi, 387-10131) (culture medium for primed pluripotent stem cells) and seeded on a multiwell plate (modified method of G. Guo, et. al., 144, 2748-2763 (2017)). […] The resetting efficiency was quantified by counting the cell count using a flow cytometer, with the EGFP-expressing cells as naive cells.
The mimic used for each miRNA was mirVana miRNA Mimic (Thermo Fisher Scientific). […] Culturing was then carried out according to common resetting protocol, and the EGFP-positive cells were quantified on Day 14 using a flow cytometer.
On Day 1 of the resetting protocol shown in FIG. 2, the 22 plasmids were used, either alone or as a mixture of the 22 plasmids minus one each, for transfection together with the transposase-expressing plasmid (pCAG-PBase), using Lipofectamine Stem Transfection Reagent (Thermo Fisher Scientific, STEM00003). […] Culturing was then carried out according to common resetting protocol, and the EGFP-positive cells were quantified on Day 14 using a flow cytometer.
[…] Culturing was then carried out according to common resetting protocol, and the EGFP-positive cells were quantified on Day 14 using a flow cytometer. […]

As to “BMP2: recombinant human bone morphogenetic protein BMP2 added to medium”, the “resetting efficiency compared to chemical” value (BMP added to medium on Day 2, VPA-containing cRM-1 (FIG. 12)) is listed as “highly significant increase”. Besides, the “resetting efficiency with respect to chemical” value (VPA-free cRM-1, miR-98-5p transfected Day 1 combined with BMP2 or BMP4 added Day 2 (FIG. 12)) is on record as “increase”.
